Source: publication PMC9574513 (The Journal of Biological Chemistry, 2022)
Numbering of substitutions follows the chain as printed.

By UniProt entry, the sequences of proteins in these tests, tags left out. Residues count along the entry.
UniProt U7E0F5, 1-524: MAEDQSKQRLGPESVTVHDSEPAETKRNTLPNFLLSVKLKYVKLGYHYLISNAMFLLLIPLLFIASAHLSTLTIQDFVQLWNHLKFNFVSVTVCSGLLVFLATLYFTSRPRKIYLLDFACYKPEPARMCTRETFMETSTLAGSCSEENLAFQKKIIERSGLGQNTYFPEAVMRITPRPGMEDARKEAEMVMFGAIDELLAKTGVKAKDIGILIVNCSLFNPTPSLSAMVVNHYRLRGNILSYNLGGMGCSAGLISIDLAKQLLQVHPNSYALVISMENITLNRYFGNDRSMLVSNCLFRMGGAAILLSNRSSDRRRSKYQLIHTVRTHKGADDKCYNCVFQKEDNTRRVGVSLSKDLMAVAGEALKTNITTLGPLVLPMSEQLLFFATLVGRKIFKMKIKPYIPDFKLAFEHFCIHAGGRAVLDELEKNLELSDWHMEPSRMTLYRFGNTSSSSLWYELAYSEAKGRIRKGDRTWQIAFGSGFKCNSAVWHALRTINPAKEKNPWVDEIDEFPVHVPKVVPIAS

Experiments:
PtKCS2 = biological target: T1, PtKCS2 (Populus trichocarpa, UniProt A0A2K1YQQ5); format: cell-based; conditions: inhibition; 30 °C, 4 days, yeast culture
T1 sequence (A0A2K1YQQ5 1-524): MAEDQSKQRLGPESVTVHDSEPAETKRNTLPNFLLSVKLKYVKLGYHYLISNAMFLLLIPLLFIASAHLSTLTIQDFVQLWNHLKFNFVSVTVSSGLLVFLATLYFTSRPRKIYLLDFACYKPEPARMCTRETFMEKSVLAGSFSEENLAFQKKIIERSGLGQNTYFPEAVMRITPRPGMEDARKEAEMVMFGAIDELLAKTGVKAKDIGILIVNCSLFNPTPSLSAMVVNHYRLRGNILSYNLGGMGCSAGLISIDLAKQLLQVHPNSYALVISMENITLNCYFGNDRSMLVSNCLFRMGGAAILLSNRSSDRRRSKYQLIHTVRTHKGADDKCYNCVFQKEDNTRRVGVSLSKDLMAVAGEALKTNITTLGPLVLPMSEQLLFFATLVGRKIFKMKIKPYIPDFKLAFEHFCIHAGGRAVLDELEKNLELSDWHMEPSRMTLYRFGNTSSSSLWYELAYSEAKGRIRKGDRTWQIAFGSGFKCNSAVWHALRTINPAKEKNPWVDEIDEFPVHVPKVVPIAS

PtKCS4 = biological target: T2, PtKCS4 (Populus trichocarpa, UniProt U7E0F5); format: cell-based; conditions: inhibition; 30 °C, 4 days, yeast culture
T2 sequence (U7E0F5 1-524): T1 sequence (A0A2K1YQQ5 1-524) with S94C, K137T, V139T, F144C, C283R

With `COP(=S)(OC)SCC(=O)N(c1ccc(Cl)cc1)C(C)C` [anilofos] the “proportion of total VLC-FAMEs vs uninhibited control at 2 μM” value (PtKCS2) was “whereas alachlor and anilofos slightly reduced activity” and the “proportion of total VLC-FAMEs vs uninhibited control at 2 μM” value (PtKCS4) was “whereas alachlor and anilofos slightly reduced activity”.
